# Laboratory results from publication PMC10215199 (Antioxidants, 2023).
# By UniProt entry, the sequences of proteins in these tests, tags left out.
# UniProt P21397, whole entry: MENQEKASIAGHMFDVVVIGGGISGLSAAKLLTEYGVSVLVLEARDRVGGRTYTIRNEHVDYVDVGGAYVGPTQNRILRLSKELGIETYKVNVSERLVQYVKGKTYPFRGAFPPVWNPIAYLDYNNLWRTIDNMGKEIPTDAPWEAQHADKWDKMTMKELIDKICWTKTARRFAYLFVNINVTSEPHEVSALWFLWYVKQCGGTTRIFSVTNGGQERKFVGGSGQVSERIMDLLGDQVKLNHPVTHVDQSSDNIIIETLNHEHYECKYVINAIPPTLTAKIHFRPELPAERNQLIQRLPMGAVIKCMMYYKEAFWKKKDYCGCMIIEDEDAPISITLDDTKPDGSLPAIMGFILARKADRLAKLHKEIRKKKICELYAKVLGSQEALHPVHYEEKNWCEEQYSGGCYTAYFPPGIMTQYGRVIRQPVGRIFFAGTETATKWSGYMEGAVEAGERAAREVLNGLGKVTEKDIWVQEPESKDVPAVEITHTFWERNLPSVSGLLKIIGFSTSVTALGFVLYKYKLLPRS
# Target: recombinant human MAO-A (Homo sapiens, UniProt P21397)
# Test: Monoamine oxidase-A inhibition assay (Amplex red fluorescence)
# Assay type: biochemical
# Settings: single dose concentration of 100 µM; ±sem
# Description: Two isoforms of MAOs, namely MAO-A and MAO-B, are expressed in CNS, showing different substrate specificity. Consequently, different pharmacological effects can be elicited depending on the inhibited MAO isoform. Therefore, the prepared O^6-aminoalkyl-hispidol analogs were evaluated against both recombinant human MAO-A and MAO-B isoforms following the well-established spectrophotometric method.
# 2. Biological evaluations
# 2.1. In vitro assay of human monoamine oxidases inhibition
# The MAO activity was quantified by measuring fluorescence intensity evoked by Amplex red reaction in which Amplex red reacts with hydrogen peroxide from the MAO reaction to produce highly fluorescent resorufin. The test compound in DMSO (final concentration: 1 nM – 10 μM or 10 nM – 100 μM ) and hMAO enzyme (Sigma Aldrich, St. Louis, MO, USA) in 50 mM sodium phosphate buffer (pH 7.4, final protein amount: ~1.25 μg of MAO-A/well and 2.5 μg of MAO-B/well) were loaded on 96-well black plate and incubated for 15 min at 37 °C. […] The fluorescence was measured using a microplate reader (SpectraMax®i3, Molecular Device, San Jose, CA, USA) with an excitation at 545 nm and an emission at 590 nm. […]
# of compounds were determined as the mean ± S.E.M. in triplicate from the dose-response inhibition curves using SigmaPlot® 13.0.
smiles,measurement,value
"C#CCN(C)CCCOc1ccc(Cl)cc1Cl [Clorgyline, reference compound]",MAO-A % Inhibition,100.49 ± 0.03%
